Source: patent US20150118311A1, “Highly Penetrative Nanocarriers for Treatment of CNS Disease” (priority 2012, published 2015)

Test system: GS5 cells
Test: GS5 cell proliferation/viability (MTT, AlamarBlue)
Type: cell-based, human
Details: read-out: IC50 of candidate drugs on GS5 cells, three days after treatment

**Q.** Which IC50 does the source give for 8-Hydroxyquinidine here?
**A.** The IC50 was 2700 nM.

**Q.** Which IC50 does the source give for PAPP here?
**A.** The IC50 was 900 nM.
